# Results reported in patent US6939893B2, “Method of reducing toxicity of anticancer agents” (priority 2002, dated 2005).
# System: normal nude mice
# Settings: parameters other than WBC; irinotecan 200 mg/kg, MSC 0.2 mg/mouse
structure (smiles),measurement,value
"CCc1c2c(nc3ccc(OC(=O)N4CCC(N5CCCCC5)CC4)cc13)-c1cc3c(c(=O)n1C2)COC(=O)[C@]3(O)CC [Irinotecan, irinotecan]",effect on the other hematologic parameters,no significant effect
